Experimental data as given in PubChem BioAssay AID743059 (The Scripps Research Institute Molecular Screening Center, 2013).
Active and inactive are the calls of the source.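 Rule for the calls: active = EC50 at or below 10 µM; inactive = EC50 above 10 µM.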

Molecular target: Nuclear hormone receptor DAF-12 (Heterodera glycines)
Experiment: hgDAF-12 reporter activation EC50 – cell-based, luminescence, HEK293, dose response (AID 743059);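 note: agonist potency for compounds that raise hgDAF-12 reporter luminescence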
Conditions: HEK293 hgDAF-12 reporter, luciferase luminescence

**Q.** How did the EC50 turn out when O=P1(N(CCCl)CCCl)Nc2ccccc2N1 was run?
**A.** The EC50 was inactive: > 67.5 µM.
